Results from patent US20060079453A1, “Hla binding peptides and their uses” (priority 2002, published 2006).
Where two headings read alike, the source gives them in different places.

Experiments:
Experiment in all cases: biochemical
Format in all cases: binding
HLA-B*1801 = HLA-B*1801 (Homo sapiens, UniProt P01889, A329T/A93T/A95T/C349S/D201E/D54G/D98Y/E176V/E187T/E204Q/E69T/K202T/Q94N/R155S/R180L/S121R/V306I/Y140S/Y195H/Y33H/Y91S)
HLA-B*4002 = HLA-B*4002 (Homo sapiens, UniProt P01889, A65T/A93T/A95T/D138N/D201E/D98Y/E176V/E204Q/E69K/K202T/N87E/Q56L/Q94N/R180L/S48T/Y33H/Y91S)
HLA-B*4402 = HLA-B*4402 (Homo sapiens, UniProt P01889, A223V/A65T/A93T/A95T/D201E/D98Y/E176V/E187L/E204Q/E69K/G107R/H137Y/K202T/L105A/L119I/N104T/N87E/Q56L/Q94N/R106L/R155S/R180D/S101N/S121R/S35A/S48T/T118I/V36M/W191S/Y140D/Y91S)
HLA-B*4001 = HLA-B*4001 (Homo sapiens, UniProt P01889, A65T/A93T/A95T/D138N/D98Y/E176V/E69K/N87E/Q56L/Q94N/R180L/S121R/S35A/S48T/T167S/V36M/W171L/Y33H/Y91S)
HLA-B*4501 = HLA-B*4501 (Homo sapiens, UniProt P01889, A329T/A65T/A93T/A95T/C349S/D138N/D201E/D98Y/E176V/E187L/E204Q/E69K/H137Y/K202T/L119W/N87E/Q56L/Q94N/R155S/R180D/S121R/S35A/S48T/V127L/V306I/V36M/W191S/Y140L/Y33H/Y91S)

Compound | IC50 (HLA-B*1801; B*1801) [µM] | IC50 (HLA-B*4001; B*4001) [µM] | IC50 (HLA-B*4501; B*4501) [µM] | further results
CC[C@H](C)[C@H](NC(=O)[C@H](Cc1ccccc1)NC(=O)[C@@H]1CCCN1C(=O)[C@H](CCCCN)NC(=O)[C@@H]1CCCN1C(=O)[C@@H]1CCCN1C(=O)[C@H](CCC(=O)O)NC(=O)[C@H](C)N)C(=O)N[C@H](C(=O)O)[C@@H](C)O | 12.8 |  |  | IC50 (HLA-B*4002; B*4002): 7.17 µM; IC50 (HLA-B*4402; B*4402): > 34.6 µM
CC[C@H](C)[C@H](NC(=O)[C@H](CCC(=O)O)NC(=O)[C@@H]1CCCN1C(=O)[C@H](CCC(=O)O)NC(=O)[C@@H](N)CS)C(=O)N[C@@H](CCC(N)=O)C(=O)N[C@@H](CC(N)=O)C(=O)N[C@H](C(=O)N[C@H](C(=O)O)[C@@H](C)O)[C@@H](C)O | 6.89 | 5.71 | 2.73 | IC50 (HLA-B*4402; B*4402): 31.8 µM
CC[C@H](C)[C@H](NC(=O)[C@H](CCC(=O)O)NC(=O)[C@@H]1CCCN1C(=O)[C@H](CCC(=O)O)NC(=O)[C@@H](N)CS)C(=O)N[C@@H](CCC(N)=O)C(=O)N[C@@H](CC(N)=O)C(=O)N[C@H](C(=O)N[C@H](C(=O)N[C@@H](Cc1ccc(O)cc1)C(=O)O)[C@@H](C)O)[C@@H](C)O |  | > 10.3 | 43.7 | IC50 (HLA-B*4002; B*4002): 35.7 µM
C[C@H](NC(=O)[C@H](Cc1c[nH]cn1)NC(=O)[C@H](Cc1ccc(O)cc1)NC(=O)[C@H](CCC(=O)O)NC(=O)[C@@H](NC(=O)[C@H](CCC(=O)O)NC(=O)[C@@H](N)CC(=O)O)[C@@H](C)O)C(=O)N[C@@H](CC(=O)O)C(=O)NCC(=O)NCC(=O)O |  | 45.3 | 29 | 
CC[C@H](C)[C@H](NC(=O)[C@H](CCCCN)NC(=O)[C@H](CCC(=O)O)NC(=O)[C@@H](N)CCC(=O)O)C(=O)N[C@@H](Cc1c[nH]c2ccccc12)C(=O)N[C@@H](CCC(=O)O)C(=O)N[C@@H](CCC(=O)O)C(=O)N[C@@H](CC(C)C)C(=O)N[C@@H](CO)C(=O)N[C@H](C(=O)O)C(C)C | 0.073 |  |  | 
CC(C)C[C@H](NC(=O)[C@H](Cc1ccc(O)cc1)NC(=O)[C@H](CCC(=O)O)NC(=O)[C@@H](N)CCC(=O)O)C(=O)N[C@H](C(=O)N1CCC[C@H]1C(=O)N[C@@H](CCC(N)=O)C(=O)N[C@@H](CCC(N)=O)C(=O)NCC(=O)N[C@@H](Cc1ccccc1)C(=O)O)C(C)C | 0.0021 | 26.6 |  | IC50 (HLA-B*4402; B*4402): 0.0069 µM
CC[C@H](C)[C@H](NC(=O)[C@H](CO)NC(=O)[C@H](CC(=O)O)NC(=O)[C@H](CCC(=O)O)NC(=O)[C@H](CCCNC(=N)N)NC(=O)CNC(=O)[C@H](CCC(=O)O)NC(=O)[C@@H](N)Cc1ccccc1)C(=O)O | 0.927 |  |  | IC50 (HLA-B*4402; B*4402): 7.71 µM
CC[C@H](C)[C@H](NC(=O)[C@H](CO)NC(=O)[C@H](CC(=O)O)NC(=O)[C@H](CCC(=O)O)NC(=O)[C@H](CCCNC(=N)N)NC(=O)CNC(=O)[C@H](CCC(=O)O)NC(=O)[C@@H](N)Cc1ccccc1)C(=O)N[C@@H](CC(C)C)C(=O)O |  | 0.051 | > 27.1 | 
CC[C@H](C)[C@H](NC(=O)[C@H](CO)NC(=O)[C@H](CC(=O)O)NC(=O)[C@H](CCC(=O)O)NC(=O)[C@H](CCCNC(=N)N)NC(=O)CNC(=O)[C@H](CCC(=O)O)NC(=O)[C@@H](N)Cc1ccccc1)C(=O)N[C@@H](CC(C)C)C(=O)NCC(=O)O |  | 0.94 | 20.3 | 
CC[C@H](C)[C@H](NC(=O)[C@H](CCC(=O)O)NC(=O)[C@H](CCC(=O)O)NC(=O)[C@H](CC(C)C)NC(=O)[C@@H](NC(=O)[C@H](CCC(=O)O)NC(=O)[C@@H](N)Cc1ccccc1)[C@@H](C)O)C(=O)N[C@H](C(=O)NCC(=O)N[C@@H](Cc1ccc(O)cc1)C(=O)O)[C@@H](C)O |  | 53.4 | > 28.5 | IC50 (HLA-B*4002; B*4002): 36.3 µM
CC(C)[C@H](NC(=O)[C@H](CO)NC(=O)CNC(=O)[C@H](Cc1ccc(O)cc1)NC(=O)CNC(=O)CNC(=O)[C@H](Cc1ccccc1)NC(=O)[C@H](CCC(=O)O)NC(=O)CN)C(=O)O | 0.307 |  |  | 
CC[C@H](C)[C@H](NC(=O)[C@H](Cc1c[nH]cn1)NC(=O)[C@@H]1CCCN1C(=O)[C@H](CCC(=O)O)NC(=O)CN)C(=O)N[C@@H](CO)C(=O)N[C@@H](Cc1ccc(O)cc1)C(=O)N1CCC[C@H]1C(=O)N1CCC[C@H]1C(=O)N[C@@H](CC(C)C)C(=O)O | 2.61 |  |  | 
CC(C)C[C@H](NC(=O)[C@H](CO)NC(=O)[C@H](CCC(N)=O)NC(=O)[C@H](CS)NC(=O)[C@H](CC(=O)O)NC(=O)[C@H](CCC(=O)O)NC(=O)[C@H](CO)NC(=O)[C@H](CO)NC(=O)[C@H](CCC(=O)O)NC(=O)CN)C(=O)O | 139 |  |  | 
CC(C)C[C@H](NC(=O)[C@H](CCC(=O)O)NC(=O)[C@@H](N)CC(C)C)C(=O)N[C@@H](CCCCN)C(=O)N[C@@H](CC(=O)O)C(=O)N[C@@H](C)C(=O)N[C@@H](CCC(N)=O)C(=O)N[C@@H](C)C(=O)NCC(=O)O | 0.451 |  |  | IC50 (HLA-B*4402; B*4402): 17.3 µM
CC(C)[C@H](NC(=O)[C@H](CO)NC(=O)CNC(=O)[C@H](CC(N)=O)NC(=O)[C@H](CCC(N)=O)NC(=O)[C@@H]1CCCN1C(=O)[C@H](CCC(N)=O)NC(=O)[C@H](CS)NC(=O)[C@H](CCC(=O)O)NC(=O)[C@@H]1CCCN1)C(=O)O |  | 36 | > 28.5 | IC50 (HLA-B*4002; B*4002): 20.4 µM
CC(C)[C@H](NC(=O)[C@H](CS)NC(=O)[C@H](CO)NC(=O)[C@H](C)NC(=O)CNC(=O)[C@H](Cc1ccccc1)NC(=O)[C@@H](NC(=O)[C@H](Cc1ccc(O)cc1)NC(=O)[C@H](CCCNC(=N)N)NC(=O)CNC(=O)[C@H](CCC(=O)O)NC(=O)[C@@H]1CCCN1)[C@@H](C)O)C(=O)O | 4.07 | 0.0029 |  | IC50 (HLA-B*4002; B*4002): 0.0044 µM; IC50 (HLA-B*4402; B*4402): 0.778 µM

Compound | IC50 (HLA-B*1801; B*1801) [µM] | IC50 (HLA-B*4001; B*4001) [µM] | IC50 (HLA-B*4501; B*4501) [µM] | further results
CC[C@H](C)[C@H](NC(=O)[C@H](CCC(=O)O)NC(=O)[C@@H](N)CCCNC(=N)N)C(=O)N[C@H](C(=O)N[C@@H](Cc1ccc(O)cc1)C(=O)N1CCC[C@H]1C(=O)N[C@@H](CC(N)=O)C(=O)N[C@@H](C)C(=O)N[C@@H](CO)C(=O)N[C@@H](CC(C)C)C(=O)O)[C@@H](C)CC | 0.741 | 0.0023 |  | 
CC[C@H](C)[C@H](NC(=O)CNC(=O)[C@H](Cc1ccccc1)NC(=O)[C@@H](NC(=O)[C@H](CC(C)C)NC(=O)[C@H](CCC(N)=O)NC(=O)[C@H](CC(C)C)NC(=O)[C@H](Cc1ccc(O)cc1)NC(=O)[C@H](CCC(=O)O)NC(=O)[C@@H](N)CO)C(C)C)C(=O)O | 0.0022 |  |  | 
CC(C)C[C@H](NC(=O)[C@H](CCC(=O)O)NC(=O)[C@@H](N)[C@@H](C)O)C(=O)N[C@H](C(=O)N[C@@H](CCC(=O)O)C(=O)N1CCC[C@H]1C(=O)N[C@@H](CC(C)C)C(=O)N[C@H](C(=O)N1CCC[C@H]1C(=O)N[C@@H](CO)C(=O)NCC(=O)N[C@@H](C)C(=O)O)[C@@H](C)O)C(C)C | 0.236 |  |  | IC50 (HLA-B*4002; B*4002): 0.059 µM
CC(C)C[C@H](NC(=O)[C@H](CC(N)=O)NC(=O)CNC(=O)[C@H](CCC(=O)O)NC(=O)[C@@H](N)C(C)C)C(=O)N[C@@H](CCCNC(=N)N)C(=O)N[C@H](C(=O)N[C@@H](CCC(=O)O)C(=O)N[C@@H](Cc1ccc(O)cc1)C(=O)O)C(C)C |  |  | 39.1 | IC50 (HLA-B*4002; B*4002): 67.7 µM
CC(C)C[C@H](NC(=O)[C@@H]1CCCN1C(=O)[C@@H]1CCCN1C(=O)[C@H](CCC(=O)O)NC(=O)[C@@H](N)C(C)C)C(=O)N[C@@H](CO)C(=O)N[C@@H](CCC(N)=O)C(=O)N[C@@H](CCC(=O)O)C(=O)N[C@H](C(=O)O)[C@@H](C)O |  |  | 29.3 | IC50 (HLA-B*4002; B*4002): 20.5 µM
CSCC[C@H](NC(=O)[C@H](CO)NC(=O)[C@H](CC(C)C)NC(=O)[C@H](CCC(=O)O)NC(=O)[C@H](CCC(=O)O)NC(=O)[C@@H](N)Cc1c[nH]c2ccccc12)C(=O)N[C@@H](CC(C)C)C(=O)N[C@@H](CCC(=O)O)C(=O)N[C@H](C(=O)N[C@@H](Cc1ccccc1)C(=O)O)C(C)C | 0.00014 |  |  | 
CC(C)C[C@H](NC(=O)[C@H](C)NC(=O)[C@H](CCC(=O)O)NC(=O)CNC(=O)[C@H](CCCNC(=N)N)NC(=O)[C@H](C)NC(=O)[C@H](CCC(=O)O)NC(=O)[C@@H](N)CC(C)C)C(=O)O [LEARGEAL] |  |  | 31.5 | IC50 (HLA-B*4002; B*4002): 0.065 µM; IC50 (HLA-B*4402; B*4402): 29.5 µM
CC(C)[C@H](NC(=O)[C@H](C)NC(=O)[C@H](CCCNC(=N)N)NC(=O)[C@@H](NC(=O)[C@H](CCC(=O)O)NC(=O)[C@@H](N)CCCNC(=N)N)C(C)C)C(=O)N[C@H](C(=O)O)[C@@H](C)O [REVRAVT] |  |  | 23.5 | IC50 (HLA-B*4402; B*4402): 31.6 µM
CC(C)C[C@H](NC(=O)[C@H](C)NC(=O)[C@@H](NC(=O)[C@H](C)NC(=O)[C@H](CC(=O)O)NC(=O)[C@H](CCC(=O)O)NC(=O)[C@H](CC(=O)O)NC(=O)[C@H](CCC(=O)O)NC(=O)[C@@H](N)C(C)C)C(C)C)C(=O)O [VEDEDAVAL] |  |  | 27.8 | IC50 (HLA-B*4402; B*4402): 30.7 µM
CEKCSKPCARV |  |  |  | IC50 (HLA-B*1801; read-out: B*1801): 1.17 µM
FEGRLEDSVFA |  |  |  | IC50 (HLA-B*1801; read-out: B*1801): 0.178 µM; IC50 (HLA-B*4001; read-out: B*4001): > 10.1 µM
GELHCPALVT |  |  |  | IC50 (HLA-B*4001; read-out: B*4001): > 9.25 µM; IC50 (HLA-B*4501; read-out: B*4501): 0.477 µM
PECQPQNGSVTGF |  |  |  | IC50 (HLA-B*1801; read-out: B*1801): 6.29 µM; IC50 (HLA-B*4002; read-out: B*4002): 5.34 µM; IC50 (HLA-B*4501; read-out: B*4501): > 22.4 µM
RERFEME |  |  |  | IC50 (HLA-B*4402; read-out: B*4402): 25.5 µM; IC50 (HLA-B*4501; read-out: B*4501): 20 µM
SEDGQSLTRT |  |  |  | IC50 (HLA-B*1801; read-out: B*1801): 0.335 µM; IC50 (HLA-B*4501; read-out: B*4501): 4.73 µM
